## Yeast mating assay 1: variants of the scFv Ab-14

Target: peptide PDVDLGDISGINAS, taken from heptad repeat 2 (HR2) of SARS-CoV-2 spike.

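The parent was found by panning a naive human phage display library on the peptide. In library AAYL50, one, two or three CDR residues were substituted; doubles and triples were drawn at random. The scFvs were displayed on barcoded MATa yeast, the peptide on MATalpha yeast. Binding brings cells together so that they mate, and sequencing counts the barcode pairs among the diploids. Read counts were normalised to the haploid input and turned into Kd by a linear fit to BCL2-family pairs of known affinity, for each replicate. Mating was done three times.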

The variants keep the heavy chain, the linker and the frameworks of Ab-14 (scFv order VH, a 15-residue (Gly4Ser)3 linker, VL).
VH: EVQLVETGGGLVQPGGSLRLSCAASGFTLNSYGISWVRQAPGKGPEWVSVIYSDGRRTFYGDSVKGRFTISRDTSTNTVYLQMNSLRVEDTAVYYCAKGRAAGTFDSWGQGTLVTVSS
VL: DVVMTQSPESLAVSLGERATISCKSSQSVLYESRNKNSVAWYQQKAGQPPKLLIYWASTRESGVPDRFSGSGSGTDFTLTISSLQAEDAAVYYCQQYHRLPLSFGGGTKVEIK

Each variant is given by its three light chain CDRs, as the data file delimits them; those of the parent are KSSQSVLYESRNKNSVA, WASTRES, QQYHRLPLS. Every variant below is changed at P101 of the VL (sequential numbering). Numbers give log10(Kd / nM), so 0 is 1 nM and 3 is 1 µM. Smaller is tighter. Averages over replicates are reported, and they cover detected replicates only. A pair that was not seen in that replicate is written "nd"; this usually means weak binding, but a binder can also be missed.

For KSSQSELYESRNKNSVA / WASTRES / QQYHGLCLS, the assay gave 0.24, 0.55, 0.64 (mean 0.48; controls 0 of 9). For KSSQSVLYESREKNSVA / WASTRES / QQYHRLCLS, the assay gave 0.58, 0.93, 0.82 (mean 0.78; controls 0 of 9). The variant RSSQSVLYESRNKNSVA / WASTRES / QQYVRLYLS showed 5.89, nd, nd (controls 1 of 9). The variant KSSQSVLYESRNKNSVA / NASTRES / QQYNRLWLS showed nd, nd, nd (controls 0 of 9). For KSSQSVLYESRNKNSVA / WASTRIS / QQYHRLEHS, the assay gave nd, 5.48, nd (controls 3 of 9). The variant KSSQSVLYESRNKMSVA / WASTRWS / QQYHRLYLS showed 4.05, 4.54, nd (mean 4.29; controls 3 of 9). For KSSQSVAYEHRNKNSVA / WASTRES / QQYHRLHLS, the assay gave 1.58, 1.74, 2.08 (mean 1.80; controls 2 of 9). The variant KSSQSVLYESRNKNSVA / WVSTRES / QQSHRLYLS showed nd, nd, nd (controls 0 of 9). The variant KSSQSVLWESRNKNSVA / WASTREK / QQYHRLYLS gave 2.64, 1.81, 3.27 (mean 2.58; controls 1 of 9).

The variant KSSQSVLYTSRNKNSKA / WASTRES / QQYHRLLLS showed nd, nd, nd (controls 0 of 9). For KSSQSVLYESRNKASVA / WASTRES / QQYHRCDLS, the assay gave 1.22, 1.49, 1.48 (mean 1.40; controls 1 of 9). The variant KSSQSVLYESYDKNSVA / WASTRES / QQYHRLHLS gave nd, 3.67, nd (controls 3 of 9). The variant KSSQGVLYESRNKNSVA / SASTRES / QQYHRLILS gave nd, 4.21, nd (controls 3 of 9). For KASQSVLYESRNKNSVA / WASTRES / QQYHCLRLS, the assay gave 3.62, 3.31, 3.56 (mean 3.49; controls 5 of 9). The variant KSSQSVLYESRNKNSVA / WAWTRES / QQYWRLYLS gave nd, 2.98, 3.15 (mean 3.07; controls 2 of 9). The variant KSSQSVLYESRNKPHVA / WASTRES / QQYHRLMLS gave 4.97, 3.74, 3.98 (mean 4.23; controls 5 of 9). The variant KTSQSVLYESRNKNSVA / WASTRES / QQYHRLHLS gave 2.11, 2.01, 2.27 (mean 2.13; controls 5 of 9). The variant KSSQSVLYESRNKNSVA / WACTRES / CQYHRLVLS showed 0.95, 0.21, 0.99 (mean 0.72; controls 0 of 9).

The variant KSSQSVLYESRNKNSVA / WASTRES / AQYHRLTLK showed nd, nd, nd (controls 0 of 9). The variant KSSQSVLYMSRNKNSVA / WASPRES / QQYHRLTLS gave nd, nd, nd (controls 0 of 9). The variant KSSQSVLAESRNKNSVA / WASTRES / QQYHRLQLS gave nd, nd, nd (controls 0 of 9). The variant ISSQSVLYESRNKNSVA / WASTRES / QQYHELKLS gave nd, nd, nd (controls 0 of 9). For KSSQSVLYESRNKNSVT / WASTRES / QQYVRLSLS, the assay gave 5.02, 4.99, nd (mean 5.00; controls 3 of 9). For KSSTSVLYESRNKNSVA / WASTRES / QQYHRMGLS, the assay gave nd, nd, nd (controls 0 of 9). The variant KSSQSVLYEWRNKNSVA / WASTRDS / QQYHRLWLS showed 3.34, 2.51, 3.41 (mean 3.09; controls 6 of 9). The variant KSGQSVLYESRNKNSVK / WASTRES / QQYHRLILS gave nd, 5.09, 6.17 (mean 5.63; controls 4 of 9). The variant ESSQSVLYESRPKNSVA / WASTRES / QQYHRLELS showed 3.17, 2.81, 2.63 (mean 2.87; controls 2 of 9).

With KSSQSVLYESRNKNSVA / WASTRES / QQYHRLWLF the result was 1.90, 2.78, 1.87 (mean 2.18; controls 1 of 9). With KSSQSVLYESTNKNSVA / WASTRES / QQYHRLQLS the result was 1.10, 1.11, 1.63 (mean 1.28; controls 0 of 9). The variant KSSASVLYESRNKNSVA / WASQRES / QQYHRLGLS showed nd, nd, nd (controls 4 of 9). The variant KSSQSVLYESRNKNSMA / WASTRES / QQYHRLSLS gave 6.10, 4.08, nd (mean 5.09; controls 3 of 9). With KSSQSVLYESRNKNSVA / WASTRES / QQTHRKQLS the result was 3.77, nd, nd (controls 1 of 9). For KSSQSVLYESRVKNIVA / WASTRES / QQYHRLDLS, the assay gave nd, 4.43, nd (controls 0 of 9). With KSSQQVLYESRNKNSVA / WASTREN / QQYHRLYLS the result was nd, 3.63, nd (controls 0 of 9). With KSSQSVLYDSRNKNSLA / WASTRES / QQYHRLVLS the result was nd, nd, nd (controls 2 of 9). For KSSQSVLYESRNKNGVA / WASTRLS / QQYHRLNLS, the assay gave nd, nd, nd (controls 0 of 9).

The variant ASSQSVLSESRNKNSVA / WASTRES / QQYHRLTLS showed 2.76, 1.97, 3.66 (mean 2.79; controls 2 of 9). With KLSQSVLYESRNKNSVA / WALTRES / QQYHRLDLS the result was 1.32, 1.56, 1.24 (mean 1.37; controls 3 of 9). The variant KSSQSVLYESRNKNSVA / WASTRES / QQYHRLKLS gave nd, nd, nd (controls 2 of 9). The variant KSSQSVLYESRNKNSVA / WASTRES / QQYHILHLS showed nd, nd, nd (controls 0 of 9). The variant KSSQSVLYESCRKNSVA / WASTRES / QQYHRLNLS gave 3.46, nd, nd (controls 1 of 9). The variant KSSQSVLYESKNKNSVA / WASTRES / QQFHRLGLS gave 1.98, 2.22, 2.67 (mean 2.29; controls 2 of 9). With KSSQSVLYESRNKNSVA / WASTCES / QQYHRERLS the result was nd, nd, 4.72 (controls 0 of 9). The variant KSSQVVLYESRNKNSVA / WASTRES / QQYHRLTSS showed 1.93, 1.53, 2.10 (mean 1.85; controls 3 of 9). The variant ASSQSVLYESRNKNSVA / WASTRES / QRYHRLDLS gave nd, nd, nd (controls 1 of 9).

3 of these entries, quoted again:

The variant KSSQSVLYESRNKNSVA / NASTRES / QQYNRLWLS gave nd, nd, nd (controls 0 of 9).
The variant KSSQSVLYESRNKNSVA / WAWTRES / QQYWRLYLS gave nd, 2.98, 3.15 (mean 3.07; controls 2 of 9).
The variant KSSQSVLYESRNKNSVA / WVSTRES / QQSHRLYLS gave nd, nd, nd (controls 0 of 9).

Three control strains display no target. For library AAYL50, 18% of the pairings with them gave a signal, with a median of 4.19 and one signal in twenty below 2.99, so weak values seen in few replicates may be background. The control count says in how many pairings with the empty strains this scFv gave a signal. In this assay the parent's reference entry averaged 0.65; its copy inside this library read 1.68.

From the AlphaSeq antibody data of Engelhart et al. 2022 (doi:10.1038/s41597-022-01779-4), copy in the FLAb collection.